Data: ChEMBL document CHEMBL5053528, “Discovery of 2-(Ortho-Substituted Benzyl)-Indole Derivatives as Potent and Orally Bioavailable RORγ Agonists with Antitumor Activity” (J Med Chem, 2021)

Assays:
MC-38 [1] = assay: Antitumor activity against mouse MC38 cells injected C57BL/6 mouse syngenic model assessed as reduction in tumor growth at 10 mg/kg, po administered once daily for 25 days; assay type: functional, organism-based; conditions: time 25.0 day
MC-38 [2] = assay: Antitumor activity against mouse MC38 cells injected C57BL/6 mouse syngenic model assessed as reduction in tumor growth at 30 mg/kg, po administered once daily for 25 days; assay type: functional, organism-based; conditions: time 25.0 day
MC-38 [3] = assay: Antitumor activity against mouse MC38 cells injected C57BL/6 mouse syngenic model assessed as reduction in tumor growth at 10 mg/kg, po administered once daily for 25 days in combination with anti-mouse PD-1 monoclonal antibody at 5 mg/kg, ip; assay type: functional, organism-based; conditions: time 25.0 day
[4] = biological target: T1, Nuclear receptor ROR-alpha (Homo sapiens) (UniProt P35398); assay: Agonist activity at human RORalpha at up to 3 uM by nuclear reporter assay; conditions: filed as agonist
T1 sequence (whole entry): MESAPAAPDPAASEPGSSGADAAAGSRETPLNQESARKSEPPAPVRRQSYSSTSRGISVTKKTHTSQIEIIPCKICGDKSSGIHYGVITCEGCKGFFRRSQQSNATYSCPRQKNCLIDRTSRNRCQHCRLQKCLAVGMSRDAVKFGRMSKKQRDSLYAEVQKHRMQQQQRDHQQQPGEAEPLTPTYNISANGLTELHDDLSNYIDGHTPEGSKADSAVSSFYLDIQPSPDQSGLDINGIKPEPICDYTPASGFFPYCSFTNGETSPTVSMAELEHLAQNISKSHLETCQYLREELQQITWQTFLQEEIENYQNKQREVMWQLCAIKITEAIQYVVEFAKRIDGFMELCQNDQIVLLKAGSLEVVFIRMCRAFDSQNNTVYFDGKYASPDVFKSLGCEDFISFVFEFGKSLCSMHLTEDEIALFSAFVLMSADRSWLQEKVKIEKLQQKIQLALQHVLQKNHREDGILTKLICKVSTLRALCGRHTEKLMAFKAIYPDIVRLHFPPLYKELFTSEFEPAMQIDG

Measured: Activity

CCS(=O)(=O)c1ccc([C@H](CO)NC(=O)c2ccc3c(c2)cc(Cc2ccc(Cl)cc2C(F)(F)F)n3CCF)cc1
active: MC-38 [1] | MC-38 [2] | MC-38 [3] | [4]

Activity calls are given as the source filed them.
